According to PubChem BioAssay AID2306 (GlaxoSmithKline (GSK), 2010):
Only a part is listed here, and it is no random draw. Calls of active or inactive are those of the source. How the calls were made is not given here.

assay: inhibition of 3D7 malaria parasite growth – strain 3D7 (AID 2306);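 further: 0% = DMSO wells and 100% = chloroquine plus artemisinin control wells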; details: P. falciparum 3D7 erythrocytic growth, LDH absorbance, 72 h; at 2 µM; hits give high values

| Compound | growth inhibition |
| --- | --- |
| CCN1CCCC(OC(=O)C(O)(c2ccc3c(c2)OCO3)c2ccc3c(c2)OCO3)C1 (configuration not stated) | active: 98% |
| CCN1CCCC1COC(=O)C(O)(c1ccc2c(c1)OCO2)c1ccc2c(c1)OCO2 (configuration not stated) | active: 97% |
